Molecular target: SARS-CoV-2 PLpro (Severe acute respiratory syndrome coronavirus 2, UniProt P0DTD1)
Settings: 1–100 µM famotidine; 4 nM PLpro, 10 µM ISG15, 1 h

NC(N)=Nc1nc(CSCCC(N)=NS(N)(=O)=O)cs1 [Famotidine]
reduction of the amount of ISG15 cleaved by PLpro: does not significantly reduce the amount of ISG15 cleaved
